Test results from patent US10011659B2, “Compositions and methods for treating cancer resistant to a tyrosine kinase inhibitor (TKI)” (Yeda Research and Development Co. Ltd., priority 2014, dated 2018).

Key:
Format in all cases: cell-based, human
[1] = system: EGFR, HER2, HER3 and phosphorylated forms in PC9ER and H1975 cells; experiment: Western blot after long-term exposure to anti-EGFR mAb; details: resistant cell lines
Description: Western blot analysis—Cells were grown under specified conditions or treated as indicated. Following the cells were washed twice with cold PBS and scraped into lysis buffer [50 mM Hepes (pH 7.5), 10% glycerol, 150 mM NaCl, 1% Triton X-100, 1 mM EDTA, 1 mM EGTA, 10 mM NaF, 0.1 mM Na3VO4, and a complete protease inhibitor cocktail]. Thereafter, lysates were centrifuged at 14,000 g for 15 minutes at 4° C. The supernatant was used for subsequent procedures. Western blot analyses were conducted following protein separation using gel electrophoresis and transfer to nitrocellulose membranes. Immunoblotting was performed according to the antibody manufacturers' recommendation. Blocking was done using 5% milk in PBST (0.5% Tween20 Sigma Cat#P9416). Antibody binding to membrane blots was detected using horseradish peroxidase—secondary antibodies (Jackson ImmunoResearch Laboratories), followed by treatment with ECL Western blotting detection reagents (GE Healthcare).

HER2 promoter = experiment: Luciferase promoter reporter assay; details: PC9ER and H1975 cells transfected with promoter-reporter plasmids
Description: (§1) Luciferase promoter reporter assay—Plasmids containing the HER2 (pNeuLite) or HER3 (HPRM23883) promoter regions were purchased, respectively, from Addgene and Genecopeia. The HER2 promoter region was amplified by PCR using Pfu-Turbo DNA polymerase (Stratagene) with the primer sequences: Forward: 5′-[…]-3′ (SEQ ID NO: 13) and Reverse: 5′-[…]-3′ (SEQ ID NO: 14), and cloned in pGM3-Basic-Vector (Promega) (pHER2-prom-LucFF). The HER3 promoter region was cloned into the pGM3-Basic-Vector using BglII and HindIII restriction enzymes (pHER3-prom-LucFF). Renilla luciferase coding region from the pRL plasmid (Promega) cloned into the 3′ of mCherry coding region of the pmCherry-C1 vector (pmCheRNL) was a kind gift from Dr. Andrea Levi. The PC9ER and H1975 cell lines were co-transfected using Lipofectamine2000 (Invitrogen) with pHER2-prom-LucFF and pmCheRNL or pHER3-prom-LucRNL and pmCheRNL. Cells co-transfected with pmCheRNL and pGL3-Control-Vector (Promega) or pGL3-Basic-Vector served, respectively, as positive and negative controls. Cells were then selected for 3 weeks with puromycin (1 μg/ml). Stably co-transfected derivative cell lines were then treated with mAb 565 or Cetuximab. […] Luciferase activity was measured using VictorX Luminometer (Promega) and the Dual-Luciferase Reporter Assay (Promega).

HER3 promoter = experiment: Luciferase promoter reporter assay; details: PC9ER and H1975 cells transfected with promoter-reporter plasmids
Description: as §1

PC9 cells = experiment: MTT cell survival assay; details: 3 days treatment with increasing doses
Description: (§2) Cell cultures—The H1975 (ATCC; NCI-H1975_CRL-5908) lung cancer cell line (EGFR mutations: L858R and T790M, ATCC; Rockville, Md.), PC9 and erlotinib-resistant PC9ER lung cancer cells (de1746-750+T790M) (described in 16) were maintained in RPMI-1640 supplemented with 10% FCS (Life technology) and antibiotics. PC9ER cells resistant to AZD-9291, denoted as PC9ER-AZDR cells, were generated by incubating PC9ER cells with AZD-9291 for three months. The dose, initially provided at 0.5 nM, was increased every 4 days per 1.5 fold up to 2.5 μM. NL20 (ATCC; NL20_CRL-2503), an immortalized human bronchial epithelial cell line (ATCC, Rockville, Md.) was maintained in F12K medium as recommended by the ATCC. Co-cultures in a ratio of 1:1 of WI38 (ATCC; CCL-75) and PC9ER or H1975 cells were maintained in DME medium supplemented with sodium pyruvate and fetal calf serum (FCS 5%; Life Technology).
(§3) Cell growth and survival—Cell survival was assessed using the 3-(4,5-dimethylthiazol-2-yl)-2,5 diphenyl tetrazolium bromide (MTT) assay (Sigma Cat#M2003). Cells were plated on 96-wells plates (2,000 cells/well) in triplicates. The medium was changed the following day and cells were treated as indicated. Following 3-4 days of incubation, MTT reagent was added to the cells for one hour followed by dissolving of the formazan crystals in SDS-DMF solution. Absorbance was measured using a microplate reader, Biorad Model 680, at 570 nm.

PC9ER cells = experiment: MTT cell survival assay; details: 3 days treatment with increasing doses; EGFR T790M
Description: as §2, §3

H1975 cells = experiment: MTT cell survival assay; details: 3 days treatment with increasing doses; EGFR T790M
Description: as §2, §3

Question: Which “HER2 and HER3 and their active tyrosine phosphorylated forms” value [1] does the source give for cetuximab here?
Answer: up-regulation

Question: What about the “expression levels of EGFR” value [1] of the same substance?
Answer: gradual decrease

Question: And the HER2 promoter activity (HER2 promoter)?
Answer: strongly increases

Question: What about the HER3 promoter activity (HER3 promoter) of the same substance?
Answer: weakly increases

Question: And the cell survival (PC9 cells)?
Answer: weakly inhibited

Question: And the cell survival (PC9ER cells)?
Answer: exhibited resistance

Question: And the cell survival (H1975 cells)?
Answer: exhibited resistance
